How the values were obtained:
[1] = tested on: Bacillus subtilis spores ATCC 19659; assay: Sporicidal activity, carrier disc ASTM E-2197-02
[2] = tested on: Vero cells; assay: Control of cytotoxicity of the disinfectant on cell monolayer; settings: virucidal assay control

methyl ethyl ketone peroxide
sporicidal activity (conclusion) ([1]; 20% and 25% during 15): not absolute although it significantly reduces the number of viable spores
sporicidal activity (conclusion) ([1]; 20% and 25% during 30 minutes): absolute sporicidal activity
mean number of colony forming units per ml after exposure of 10 test carrier disks ([1]; peroxide 15%, exposure time 5 min): 7.2 × 10^2 CFU/ml
mean number of colony forming units per ml after exposure of 10 test carrier disks ([1]; peroxide 15%, exposure time 15 min): 4.3 × 10^2 CFU/ml
mean number of colony forming units per ml after exposure of 10 test carrier disks ([1]; peroxide 15%, exposure time 30 min): 1.8 × 10^2 CFU/ml
mean number of colony forming units per ml after exposure of 10 test carrier disks ([1]; peroxide 20%, exposure time 5 min): 7.6 × 10^2 CFU/ml
mean number of colony forming units per ml after exposure of 10 test carrier disks ([1]; peroxide 20%, exposure time 15 min): 0.5 × 10^2 CFU/ml
mean number of colony forming units per ml after exposure of 10 test carrier disks ([1]; peroxide 20%, exposure time 30 min): 0 CFU/ml
mean number of colony forming units per ml after exposure of 10 test carrier disks ([1]; peroxide 25%, exposure time 5 min): 5.0 × 10^2 CFU/ml
mean number of colony forming units per ml after exposure of 10 test carrier disks ([1]; peroxide 25%, exposure time 15 min): 0.3 × 10^2 CFU/ml
mean number of colony forming units per ml after exposure of 10 test carrier disks ([1]; peroxide 25%, exposure time 30 min): 0 CFU/ml
Control of cytotoxicity (CTX) [2]: Absence of CTX

From patent publication US20100292343A1, “USE OF A DIALKYLKETONE PEROXIDE AS BIOCIDAL, STERILIZING, ANTISEPTIC, DISINFECTING AND ANTI-PARASITIC AGENT” (published 2010)
